This is a selection; strong and weak results do not stand in their true shares. The source made the active and inactive calls.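 The calls were made as follows: active = B-score of the integrated calcium signal more than 4 SD below the library mean, with starting fluorescence not abnormally high; inactive = the rest.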

The assay can be described thus: RGS4 potentiators or activators, primary screen, cell-based, HEK293 M3R inducible RGS4, calcium flux (AID 463111).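 As to B-score: negative B-score means reduced calcium response which marks RGS4 activation or potentiation.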 To be noted: HEK293 M3R/inducible RGS4, carbachol calcium flux Fluo4, at 10 µM; active compounds read low. The method in brief: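 System: HEK293 FlpIn-TREx cells, stable M3R, doxycycline-inducible RGS4. Timing: overnight RGS4 induction, 30 min dye load 37 °C, 20 min compound RT. Also added: carbachol, ECmax concentration. Measured by: Fluo4 fluorescence kinetic imaging of calcium. Evaluation: integrated calcium ratio converted to B score.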
In general terms: Calcium flux is commonly read through the fluorescence of an indicator in the cells.
Regarding `CCN1CCC(Nc2ccc(Cl)cc2)CC1`, the result was inactive. As for `N#CC1(Nc2ccccc2)CCN(CCc2ccccc2)CC1`, the outcome was inactive. With `O=C(NCC1(N2CCCCC2)CCCCC1)c1cccc([N+](=O)[O-])c1`, the result was inactive. For the compound `O=C(NCC1(N2CCCCC2)CCCCC1)c1ccc(OC(F)F)cc1`, the outcome was inactive. Turning to `COc1cc(C(=O)NCC2(N3CCCCC3)CCCCC2)ccc1OC(F)F`, the B-score was active: -8. Consider `O=C(NCC1(N2CCOCC2)CCCCC1)c1cc(=O)[nH]c2ccccc12`, for which the result was inactive.

With `CN1CCN(CCOC(=O)C(O)(c2ccccc2)c2ccccc2)CC1`, the outcome was inactive. Take `COc1ccc(NC2CCN(C(=O)OC(C)(C)C)CC2)cc1`: the outcome was inactive. Take `O=C(NCC1(N2CCCCC2)CCCCC1)c1cccc(C(F)(F)F)c1`: the outcome was inactive. Regarding `COc1cc(OC)c(C(=O)NCC2(N(C)C)CCCCC2)cc1OC`, the result was inactive. `CC(C)c1ccc(NC2CCN(C(=O)OC(C)(C)C)CC2)cc1`: the outcome was inactive. For the compound `COc1ccc(CN(CCCl)CCCl)cc1Cl`, the result was inactive.

Consider `CN(C)c1cccc(C(=O)NCC2(N3CCCCC3)CCCCC2)c1`, for which the result was inactive. With `CCCOc1ccc(C(=O)NCC2(N(C)C)CCCCC2)cc1OC`, the result was inactive.

`CN1CCC(Nc2cccc(F)c2)CC1`: the result was inactive. Consider `CSc1ccccc1C(=O)NCC1(N2CCCCC2)CCCCC1`, for which the result was inactive.

Turning to `COc1ccc(C(=O)NCC2(N3CCCCC3)CCCCC2)cc1`, the result was inactive. `COc1ccc(C(=O)NCC2(N3CCCCC3)CCCCC2)c(OC)c1OC`: the outcome was inactive. Take `CC(C)(C)OC(=O)N1CCC(N(C(=O)c2ccccc2)c2ccc(F)cc2)CC1`: the outcome was inactive. For `O=C(NCC1(N2CCCCC2)CCCCC1)c1ccc(=O)[nH]c1`, the result was inactive. For `O=C(NCC1(N2CCCCC2)CCCCC1)c1cccs1`, the result was inactive. Consider `O=C(OC1CN2CCC1CC2)C1c2ccccc2Oc2ccccc21` (centres undefined), for which the B-score is active: -6.97. On to `N#CC1(Nc2ccccc2)CCN(Cc2ccccc2)CC1`, for which the result was inactive. On the same count and under the same terms, then `CCOC(=O)N1CCC(Nc2ccc(OC)cc2)CC1`, with “inactive”; and `O=C(NCC1(N2CCCCC2)CCCCC1)c1ccc(Cl)nc1`, with “inactive”. For the compound `Cc1cc(C)cc(N(C(=O)c2ccccc2)C2CCN(C(=O)OC(C)(C)C)CC2)c1`, the outcome was inactive. As for `O=C(NCC1(N2CCOCC2)CCCCC1)c1cc2ccccc2o1`, the result was inactive. For `O=C(NCC1(N2CCCCC2)CCCCC1)c1ccc(F)cc1`, the result was inactive. For the compound `COc1ccc(NC2CCN(CCc3ccccc3)CC2)c(OC)c1`, the result was inactive. On to `CCOC(=O)N1CCC(Nc2ccc(F)cc2)CC1`, for which the result was inactive. In the case of `CCOc1ccc(C)cc1CN(CCCl)CCCl`, the B-score is active: -11.1. As to `COc1cc(C(=O)NCC2(N(C)C)CCCCC2)ccc1OC(F)F`, the result was inactive. Take `CCOC(=O)N1CCC(Nc2cccc(C)c2)CC1`: the outcome was inactive. Take `Cc1ccc(OCC(C)C)c(CN(CCCl)CCCl)c1`: the outcome was inactive. For the compound `Cc1ccc(C(=O)NCC2(N3CCCCC3)CCCCC2)o1`, the result was inactive.

Take `Fc1ccccc1NC1CCN(Cc2ccccc2)CC1`: the outcome was inactive. In the case of `COc1cc(OC)cc(C(=O)NCC2(N3CCCCC3)CCCCC2)c1`, the result was inactive.

With `CN(C)c1ccc(C(=O)NCC2(N3CCCCC3)CCCCC2)cc1`, the outcome was inactive. With `CCN1CCC(Nc2cccc(F)c2)CC1`, the outcome was inactive.

As for `CC(C)(C)OC(=O)N1CCC(Nc2ccccc2)CC1`, the result was inactive. `O=C(O)C1(Nc2ccccc2)CCN(Cc2ccccc2)CC1`: the result was inactive. On to `CCCOc1ccc(C(=O)NCC2(N(C)C)CCCCC2)cc1`, for which the result was inactive.

On to `CCOc1ncccc1C(=O)NCC1(N2CCOCC2)CCCCC1`, for which the outcome was inactive. For the compound `CN1CCC(Nc2ccc(F)c(Cl)c2)CC1`, the outcome was inactive.

For `CN1CCC(Nc2ccc(Cl)cc2)CC1`, the outcome was inactive. On to `CCCOc1ccc(C)cc1CN(CCCl)CCCl`, for which the B-score is active: -7.79. As for `COc1cc(OC)cc(C(=O)NCC2(N3CCOCC3)CCCCC2)c1`, the outcome was inactive. On to `COc1cccc(C(=O)N(c2cc(C)cc(C)c2)C2CCN(C(=O)OC(C)(C)C)CC2)c1`, for which the result was inactive.

Take `CCC(CO)(C(=O)OC1CN2CCC1CC2)c1ccccc1` (centres undefined): the result was inactive.

For the compound `COc1ccc(C(=O)NCC2(N3CCOCC3)CCCCC2)cc1OC`, the outcome was inactive. With `O=C(OC1CN2CCC1CC2)C1c2ccccc2C=Cc2ccccc21` (centres undefined), the B-score was active: -9.04. Take `CCc1cc(C(=O)NCC2(N3CCCCC3)CCCCC2)sc1C`: the outcome was inactive. Take `CCOC(=O)N1CCC(Nc2ccc(C)cc2)CC1`: the result was inactive. As for `N/C(=N\O)c1c(N)no[n+]1[O-]`, the result was inactive. The same measure, in the same setting: the result for `N#Cc1ccc(C(=O)NCC2(N3CCCCC3)CCCCC2)cc1` reads “inactive”. As to `CC(C)(C)OC(=O)N1CCC(N(C(=O)c2ccccc2)c2ccc(Cl)cc2)CC1`, the result was inactive.

On to `CN(C)C1(CNC(=O)c2cccc(C#N)c2)CCCCC1`, for which the result was inactive. On to `c1ccc(CN2CCC(Nc3ccccc3)CC2)cc1`, for which the outcome was inactive.

In the case of `CCCN1CCC(Nc2cc(OC)cc(OC)c2)CC1`, the result was inactive.

(Values after PubChem BioAssay AID463111 (Johns Hopkins Ion Channel Center, 2010).)
